Results on 1 compound are retold here after patent US20240189316A1, “DEUTERATED ANALOGS OF ETIFOXINE AND METHODS OF ADMINISTRATION WITHOUT AUTOINDUCTION OF METABOLISM” (Gaba Therapeutics Inc., priority 2022, published 2024).

This series is described as follows: Phase 1 multiple-ascending dose study, plasma pharmacokinetics in healthy subjects. To be noted: human, in vivo. On the procedure: The first dose of study drug was given on Day 1. On Days 1 through 6, subjects subsequently received two (q12h) oral doses of study drug each day. A final single dose of study drug was given on Day 7. Each dose of study drug was given with a 240 mL glass of water at the end of ingestion of a standard meal. The meal was provided 30 minutes before dosing and was completed within 30 minutes or less. On Day 1 and Day 7, subjects were required to fast for 8 hours before the morning meal dose and for 2 hours post dose (water was freely available during this time).

Consider `[2H]C([2H])([2H])C([2H])([2H])NC1=Nc2ccc(Cl)cc2C(C)(c2ccccc2)O1` (racemic) [Deuterated Etifoxine, 6-chloro-N-(ethyl-d5)-4-methyl-4-phenyl-4H-3,1-benzoxazin-2-amine], for which the Renal clearance result was “low renal clearance”.
